According to ChEMBL document CHEMBL1130514, “Design and synthesis of conformationally constrained arginal thrombin inhibitors” (Bioorg Med Chem Lett, 1997):

Target: Prothrombin (Homo sapiens, UniProt P00734)
Experiment: In vitro ability to inhibit the activity of human alpha Thrombin

## CC1CNc2c(cccc2S(=O)(=O)N[C@@H](CCCNC(=N)N)C(=O)N2CCC(C)C[C@@H]2C(=O)O)C1 (single isomer, unassigned) [ARGATROBAN]
  IC50: 39 nM
